Measured values from patent US20080221078A1, “Use of a CB1 Antagonist for Treating Side Effects and Negative Symptoms of Schizophrenia” (priority 2005, published 2008).

How the values were obtained:
[1] = Antipsychotic induced catalepsy (bar test); conditions: male, Sprague-Dawley, rat, in vivo, intraperitoneal
Male Sprague-Dawley rats = assay: Antipsychotic induced catalepsy (bar test); conditions: olanzapine 10 mg/kg
[2] = system: Female Wistar rats on high fat diet; assay: Antipsychotic (olanzapine) induced weight gain; conditions: olanzapine 3 mg/kg i.p.

With `Cc1cc2c(s1)Nc1ccccc1N=C2N1CCN(C)CC1` [olanzapine, reference compound] the ED50 at 30 min [1] was 9.34 mg/kg, the induction of catalepsy (Male Sprague-Dawley rats) was “only induces catalepsy at higher dose” and the “weight gain vs. saline controls” value [2] was “significantly caused an increase in weight gain”. For the same compound, the “time at which the increase in weight gain was significant” value ([2]; lasted to the end of the study) was 5 days.
